{"source": "patent US20110155130A1", "about": "“Dronabinol Treatment for Migraines” (Unimed Pharmaceuticals, Inc., priority 2005, published 2011)", "origin": "cited, not measured here", "settings": "acute migraine attacks"}
{"molecule": "O=C(O)C(O)C(O)C(=O)O.Oc1ccc2c(c1)[C@@]13CCCC[C@@]1(O)[C@@H](C2)N(CC1CCC1)CC3", "note": "[Butorphanol tartrate]", "values": [{"measurement": "onset of pain relief", "value": "≤ 15", "unit": "min"}]}
